## Ab-14 heavy chain CDR variants: yeast mating affinities

Source: Li et al. 2023 (doi:10.1038/s41467-023-39022-2), MIT Lincoln Laboratory and A-Alpha Bio; data file from the FLAb repository.

Binding partner: SARS-CoV-2 spike HR2 peptide, sequence PDVDLGDISGINAS.

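These sequences belong to a second round, designed from the earlier measurements on random variants of the parent. Several design methods are mixed in this list. The assay is AlphaSeq: two haploid yeast populations carry antibody and antigen on their surface. After mating in shaken culture at 30 °C for 16 h, diploids were selected and their barcode pairs sequenced. Read counts were normalised to the haploid input and turned into Kd by a linear fit to BCL2-family pairs of known affinity, for each replicate. Each pool was mated in six replicate cultures.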

Each scFv is VH, the linker GGGGSGGGGSGGGGS, VL, as in the parent Ab-14, and differs from it in the CDRs of the heavy chain only.
VH: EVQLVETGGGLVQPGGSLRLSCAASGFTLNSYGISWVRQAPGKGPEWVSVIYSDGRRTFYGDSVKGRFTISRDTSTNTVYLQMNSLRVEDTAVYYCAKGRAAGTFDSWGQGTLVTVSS
VL: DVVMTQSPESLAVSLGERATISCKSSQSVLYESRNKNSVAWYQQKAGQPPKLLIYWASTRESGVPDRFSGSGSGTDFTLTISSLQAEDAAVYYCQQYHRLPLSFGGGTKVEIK

Positions count from residue 1 of the parent VH; T28D puts D in place of T.
Variants here have at most six changes.
The read-out is the apparent dissociation constant on a log10 scale (nM): the lower, the stronger.
The mean shown is taken over the replicates in which the pair was detected.
"no signal" means that the variant was in the library but no mating with the target was seen in any replicate; the authors take this as a sign of poor binding, and no number exists.
Order: sorted from the lowest average up, undetected variants last.
As a blank, each scFv also met three strains without target: over all heavy chain designs, 1% of these pairings were detected, typically at 2.08 and seldom below 0.84.
The range of this assay differs from that of the first round, and the authors advise against merging the two.
The authors averaged sequences with at least three values out of six and counted those with two or fewer as poor binders.

* T28D+S31E+S53A+G61S+R100A+A101V: -0.52 (6 of 6 replicates)
* T28S+R100H+S107T: -0.46 (6 of 6 replicates)
* T28D+S31E+S53A+G61Q+R100N+A101V: -0.32 (6 of 6 replicates)
* T28D+S31E+S53A+G61I+R100Q+A101T: -0.27 (6 of 6 replicates)
* T28N+S31E+S53A+G61S+R100E+A101N: -0.22 (6 of 6 replicates)
* T28D+S63D+R100K+A101T+S107A: -0.11 (6 of 6 replicates)
* T28N+N30D+S31E+S53A+G61S+R100E: -0.10 (4 of 6 replicates)
* T28D+F59A+G61I: -0.04 (6 of 6 replicates)
* T28D+G61V+R100V: 0.29 (6 of 6 replicates)
* T28S+R100K+A101T+S107L: 0.32 (6 of 6 replicates)
* N30D+G61Q+R100S: 0.36 (6 of 6 replicates)
* S31E+G61S+R100Q+A101Y: 0.41 (6 of 6 replicates)
* R56K+R100W+A101V: 0.50 (6 of 6 replicates)
* T28S+N30E+G61A+R100Q: 0.57 (4 of 6 replicates)
* G26K+T28D+G61A+R100K: 0.61 (6 of 6 replicates)
* T28Q+S53A+S63Q: 0.64 (6 of 6 replicates)
* G26P+T28D+F59A+A101Q: 0.64 (6 of 6 replicates)
* S31E+G61T+R100W+S107L: 0.67 (6 of 6 replicates)
* T28S+G61A+S63Q+R100Q: 0.72 (6 of 6 replicates)
* T28L+S53A+R100K: 0.78 (6 of 6 replicates)
* T28S+S31E+A101T+D106N: 0.81 (6 of 6 replicates)
* G26H+T28E+G61A+R100K+A101T: 0.95 (6 of 6 replicates)
* T28S+G61Q+S63K+A101T: 0.97 (4 of 6 replicates)
* S31E+A101V+D106T: 1.07 (6 of 6 replicates)
* S31D+R56Q+A101H+F105T: 1.21 (5 of 6 replicates)
* T28E+S31D+F59W: 1.25 (6 of 6 replicates)
* T28S+R56W+G61V+A101N: 1.68 (2 of 6 replicates)
* N30E+S63K+A101T: 1.68 (3 of 6 replicates)
* R56I+T104R: 1.96 (2 of 6 replicates)
* F27H+T28D+G61I+K65E: 2.04 (6 of 6 replicates)
* S31D+R56K+D62G: 2.23 (1 of 6 replicates)
* T58V+A101Q: 2.32 (5 of 6 replicates)
* T28P+N30E+G61A+D106H+S107Q: 2.36 (1 of 6 replicates)
* T28D+A101S+D106N: no signal (0 of 6 replicates)
* G26K+A102H+T104Q+D106E: no signal (0 of 6 replicates)
* R56M+R100V+G103K: no signal (0 of 6 replicates)
* T28E+G61Q+R100D: no signal (0 of 6 replicates)
* F27D+T28N+G55H+R100G+T104M: no signal (0 of 6 replicates)
* L29M+G61T+T104G+S107D: no signal (0 of 6 replicates)
* F27C+T28S+S31D+F59M+G61I: no signal (0 of 6 replicates)
* L29I+S31D+T104E: no signal (0 of 6 replicates)
* S53A+G99R+T104S+F105T: no signal (0 of 6 replicates)
* T28S+S31E+G61C+R100W+S107R: no signal (0 of 6 replicates)
* S31E+R56K+F59Q+G61M: no signal (0 of 6 replicates)
* R56Q+S63Q+A101E+T104K: no signal (0 of 6 replicates)
* N30E+I34Y+G61L+R100Y: no signal (0 of 6 replicates)

6 of these entries, quoted again:

| changes | mean log10 Kd (nM) | detected |
|---|---|---|
| T28Q+S53A+S63Q | 0.64 | 6 of 6 |
| F27C+T28S+S31D+F59M+G61I | no signal | 0 of 6 |
| T28L+S53A+R100K | 0.78 | 6 of 6 |
| T28D+F59A+G61I | -0.04 | 6 of 6 |
| T28D+S31E+S53A+G61S+R100A+A101V | -0.52 | 6 of 6 |
| T28N+S31E+S53A+G61S+R100E+A101N | -0.22 | 6 of 6 |